{
  "sequences": {"note": "By UniProt entry, the sequences of proteins in these tests, tags left out. Residues count along the entry.", "UniProt P05106, 27-788": "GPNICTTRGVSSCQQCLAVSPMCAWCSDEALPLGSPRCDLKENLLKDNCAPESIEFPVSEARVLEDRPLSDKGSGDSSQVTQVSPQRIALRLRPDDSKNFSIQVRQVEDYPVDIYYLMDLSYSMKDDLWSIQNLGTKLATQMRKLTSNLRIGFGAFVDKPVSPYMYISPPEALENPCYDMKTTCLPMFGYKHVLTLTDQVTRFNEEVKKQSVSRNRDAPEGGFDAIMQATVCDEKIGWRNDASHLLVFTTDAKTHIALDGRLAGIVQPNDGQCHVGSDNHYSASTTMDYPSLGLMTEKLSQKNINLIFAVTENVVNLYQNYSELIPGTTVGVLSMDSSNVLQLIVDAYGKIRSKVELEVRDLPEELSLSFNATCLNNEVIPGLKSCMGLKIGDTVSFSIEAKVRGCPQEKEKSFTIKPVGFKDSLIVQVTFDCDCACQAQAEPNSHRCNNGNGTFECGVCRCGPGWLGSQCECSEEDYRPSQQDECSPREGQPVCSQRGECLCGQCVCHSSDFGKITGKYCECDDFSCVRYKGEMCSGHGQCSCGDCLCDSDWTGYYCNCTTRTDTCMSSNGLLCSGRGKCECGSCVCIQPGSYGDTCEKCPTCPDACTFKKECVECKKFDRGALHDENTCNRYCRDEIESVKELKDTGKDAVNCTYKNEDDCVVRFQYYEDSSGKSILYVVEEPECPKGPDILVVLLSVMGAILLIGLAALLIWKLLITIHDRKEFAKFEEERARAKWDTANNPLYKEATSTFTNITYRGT", "UniProt P06756, 891-1048 partner limits assumed": "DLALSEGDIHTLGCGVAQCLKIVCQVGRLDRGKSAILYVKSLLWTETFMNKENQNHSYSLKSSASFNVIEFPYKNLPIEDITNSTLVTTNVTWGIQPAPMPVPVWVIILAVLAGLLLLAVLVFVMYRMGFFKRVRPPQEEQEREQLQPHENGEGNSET", "UniProt P06756, 31-889 limits assumed": "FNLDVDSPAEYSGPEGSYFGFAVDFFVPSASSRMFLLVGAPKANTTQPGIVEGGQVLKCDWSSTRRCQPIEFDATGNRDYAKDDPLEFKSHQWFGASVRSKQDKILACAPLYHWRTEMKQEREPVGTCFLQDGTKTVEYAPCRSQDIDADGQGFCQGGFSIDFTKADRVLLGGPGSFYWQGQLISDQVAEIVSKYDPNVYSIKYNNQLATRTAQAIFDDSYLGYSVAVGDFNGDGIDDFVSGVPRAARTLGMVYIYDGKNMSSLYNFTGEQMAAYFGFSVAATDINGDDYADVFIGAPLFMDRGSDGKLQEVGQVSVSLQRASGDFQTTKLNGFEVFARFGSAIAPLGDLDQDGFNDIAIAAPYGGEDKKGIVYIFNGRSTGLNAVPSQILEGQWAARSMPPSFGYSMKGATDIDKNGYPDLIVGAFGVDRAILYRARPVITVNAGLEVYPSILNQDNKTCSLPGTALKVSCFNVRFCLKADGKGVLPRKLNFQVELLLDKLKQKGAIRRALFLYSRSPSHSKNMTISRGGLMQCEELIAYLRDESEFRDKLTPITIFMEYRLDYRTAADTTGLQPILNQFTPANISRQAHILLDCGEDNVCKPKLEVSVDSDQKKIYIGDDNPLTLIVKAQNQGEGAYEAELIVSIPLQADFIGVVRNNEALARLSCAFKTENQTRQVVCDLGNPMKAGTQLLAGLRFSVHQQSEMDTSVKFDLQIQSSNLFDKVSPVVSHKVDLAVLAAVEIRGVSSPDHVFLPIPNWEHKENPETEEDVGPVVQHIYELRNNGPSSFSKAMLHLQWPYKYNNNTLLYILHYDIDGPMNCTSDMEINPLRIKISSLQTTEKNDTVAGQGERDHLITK", "UniProt P08648, 895-1049 partner limits assumed": "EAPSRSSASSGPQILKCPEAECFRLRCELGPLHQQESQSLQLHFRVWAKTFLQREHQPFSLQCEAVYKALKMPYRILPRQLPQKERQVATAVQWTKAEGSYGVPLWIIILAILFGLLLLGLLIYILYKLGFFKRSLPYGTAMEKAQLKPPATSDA", "UniProt P08648, 42-894 limits assumed": "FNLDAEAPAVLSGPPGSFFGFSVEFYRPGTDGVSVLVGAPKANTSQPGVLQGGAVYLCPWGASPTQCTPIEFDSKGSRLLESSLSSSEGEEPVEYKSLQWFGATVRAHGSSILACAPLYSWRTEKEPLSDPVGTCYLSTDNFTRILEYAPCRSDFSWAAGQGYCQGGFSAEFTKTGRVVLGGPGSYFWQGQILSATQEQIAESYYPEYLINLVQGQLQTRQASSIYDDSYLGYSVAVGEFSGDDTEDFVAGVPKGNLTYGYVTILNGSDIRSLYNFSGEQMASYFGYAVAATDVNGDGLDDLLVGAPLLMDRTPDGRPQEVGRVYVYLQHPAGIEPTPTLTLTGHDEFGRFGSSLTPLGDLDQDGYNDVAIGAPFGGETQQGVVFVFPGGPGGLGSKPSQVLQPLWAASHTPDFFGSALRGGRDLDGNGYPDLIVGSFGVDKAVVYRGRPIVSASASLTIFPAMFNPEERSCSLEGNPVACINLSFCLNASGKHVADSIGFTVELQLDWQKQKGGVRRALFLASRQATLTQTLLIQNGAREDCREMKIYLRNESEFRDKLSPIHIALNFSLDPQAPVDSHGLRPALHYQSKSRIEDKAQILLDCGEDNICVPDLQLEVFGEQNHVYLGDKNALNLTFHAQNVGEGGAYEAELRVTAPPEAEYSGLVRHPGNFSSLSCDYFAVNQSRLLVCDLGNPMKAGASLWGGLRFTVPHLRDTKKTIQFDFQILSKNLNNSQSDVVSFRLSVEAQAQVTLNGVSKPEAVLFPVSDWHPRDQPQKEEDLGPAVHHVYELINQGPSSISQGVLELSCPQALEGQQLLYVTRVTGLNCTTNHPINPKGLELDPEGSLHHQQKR"},
  "source": "patent US8343539B2",
  "about": "“Compounds that bind α5β1 integrin and methods of use” (Regents of the University of Minnesota, priority 2006, dated 2013)",
  "key": {"integrin αvβ3": {"molecular_target": "T1, integrin αvβ3 (Homo sapiens, UniProt P05106+P06756)", "T1 construct": "HUVECs were prepared and counted as described in the cell adhesion protocol; endogenous in cells; host or cells: HUVEC (human umbilical vein endothelial cells)", "experiment": "Adhesion blocking with anti-integrin αvβ3 antibody (LM609)", "assay_type": "cell-based", "conditions": "anti-αvβ3 antibody 20 μg/ml, 1 hour, HUVECs 249 cells/mm^2", "method": "(§1) Adhesion blocking experiments: Blocking experiments were done using mouse anti-human integrin […] (P1D6), β1 (P5D2), α5β1 (JBS5), and αvβ3 (LM609) monoclonal antibodies (Chemicon Int.). All surfaces were transferred to 24- or 12-well plates and pre-incubated in 0.1% BSA media as described above. HUVECs were prepared and counted as described in the cell adhesion protocol. Cells were blocked by mixing the cell suspension with the appropriate antibody in 0.1% BSA media, and incubating for 30 minutes at 37° C., 5% CO2 with constant agitation. Blocked cells were then released onto LB and FN surfaces and allowed to adhere for 1 hour at 37° C., 5% CO2. For all blocking experiments, cells were seeded at 249 cells/mm^2 (lower seeding density was used here to reduce the amount of antibodies needed to block cell adhesion) and a final antibody concentration in each well was 20 μg/ml. Following incubation, surfaces were washed, and adhered cells were quantified as described in the cell adhesion protocol."}, "integrin β1": {"molecular_target": "T2, integrin β1 (Homo sapiens, UniProt P05556+P08648)", "T2 construct": "HUVECs were prepared and counted as described in the cell adhesion protocol; endogenous in cells; host or cells: HUVEC (human umbilical vein endothelial cells)", "experiment": "Adhesion blocking with anti-integrin β1 antibody (P5D2)", "assay_type": "cell-based", "conditions": "anti-β1 antibody 20 μg/ml, 1 hour, HUVECs 249 cells/mm^2", "method": "as §1"}},
  "data": [
    {"substance": "FN: Human fibronectin-coated round coverslips (BD Biosciences), positive control", "values": [
      {"measurement": "reduction in cell adhesion compared to adhesion of non-blocked cells", "setting": "integrin αvβ3", "result": "72.39±2.87", "unit": "%"},
      {"measurement": "reduction in cell adhesion compared to adhesion of non-blocked cells", "setting": "integrin β1", "result": "73.84±8.69", "unit": "%"}
    ]}
  ]
}
